Target: human kidney renin (Homo sapiens, UniProt P00797)
Experiment: Radioimmunoassay screen for renin inhibitors (angiotensin I generation, then RIA quantitation)
Settings: read-out: Renin Inhibition IC50 Molar Concentration; purified human plasma angiotensinogen substrate, maleate buffer pH 6.0, 1 hour at 37° C.
Description: Radioimmunoassay Screen For Renin Inhibitors
The in vitro method for the screening of anti-renin compounds involves, first, angiotensin I generation, and second, the quantitation of the angiotensin I produced by radioimmunoassay.
The incubation medium consisted of 20 μl of purified human plasma angiotensinogen; (1) 10 μl of human kidney renin; (2) 5 μl of phenylmethylsulfonyl fluoride; 10 μl of disodium EDTA (10 mM); 10 μl of antirenin compound (5×10^-3 M, 5×10^-4 M, 5×10^-5 M) in dimethylformamide, or ethanol and a suitable amount of maleate buffer (77 mM, pH 6.0) to make a final volume of 500 μl . The reaction mixture is incubated for one hour at 37° C. and the enzymatic reaction is stopped by placing the tube in ice-cold water. The angiotensin I generated during the incubation is measured by a radioimmunoassay plasma renin activity kit (Clinical Assays, Inc.).
Radioimmunoassay Procedure
The incubation medium consisted of either 100 μl aliquots of the above reaction mixture or a standard amount of angiotensin I; 1000 μl of phosphate buffer (100 mM, pH 7.6) and 100 μl of (^125 I) angiotensin in a gamma-coat tube. After three hours of incubation at room temperature, the tubes are decanted, and the radioactivity of each tube is determined in a gamma counter. Duplicate determinations are performed for each incubation. The results are expressed in ng of angiotensin I generated per ml of generation medium per hour of incubation (ng/AI/ml/hr).
The results of this test on representative compounds of this invention appear in Table I, expressed as an IC50.
(1) The human plasma angiotensinogen derived from the blood of a person receiving oral contraceptive pills is purified by chromatography on a pepstatinaminohexyl-agarose column.
(2) Human renin is prepared from human kidney.

The chains behind the UniProt entries cited, without tags or fusion partners. Residues count along the entry.
UniProt P00797, 67-406 limits assumed: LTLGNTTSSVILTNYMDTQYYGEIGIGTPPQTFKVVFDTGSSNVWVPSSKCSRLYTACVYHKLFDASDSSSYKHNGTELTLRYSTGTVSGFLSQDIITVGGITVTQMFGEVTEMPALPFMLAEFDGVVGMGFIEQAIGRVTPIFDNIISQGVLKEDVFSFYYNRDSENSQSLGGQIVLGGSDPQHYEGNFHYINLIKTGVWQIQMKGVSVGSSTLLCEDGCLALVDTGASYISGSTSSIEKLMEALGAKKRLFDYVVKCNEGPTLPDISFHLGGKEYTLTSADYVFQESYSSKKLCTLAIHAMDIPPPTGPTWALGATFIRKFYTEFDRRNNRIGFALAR

SMILES	IC50
CC(C)C[C@H](NC(=O)[C@@H](CC(=O)c1ccco1)Cc1ccccc1)C(=O)N[C@@H](CC1CCCCC1)[C@@H](O)[C@@H]1CCCO1	0.01 nM
CC(C)C[C@H](NC(=O)[C@H](CC(=O)c1ccccc1)Cc1ccccc1)C(=O)N[C@@H](CC1CCCCC1)[C@@H](O)[C@@H]1CCCO1	51 nM
CC(C)CC(NC(=O)C(CC(=O)c1ccccc1)Cc1ccccc1)C(=O)NC(CC1CCCCC1)C(O)c1cccs1 (stereo not shown)	490 nM
O=C(C[C@H](Cc1ccccc1)C(=O)N[C@@H](Cc1cnc[nH]1)C(=O)N[C@@H](CC1CCCCC1)[C@@H](O)[C@@H]1CCCO1)c1ccco1	29 nM
CC(C)C[C@H](NC(=O)[C@H](CC(=O)c1ccco1)Cc1ccccc1)C(=O)N[C@@H](CC1CCCCC1)[C@@H](O)[C@@H]1CCCO1	190 nM
CC(C)C[C@H](NC(=O)[C@@H](CC(=O)c1ccccc1)Cc1ccccc1)C(=O)N[C@@H](CC1CCCCC1)[C@@H](O)[C@@H]1CCCO1	2.7 nM
CC(C)C[C@H](NC(=O)[C@H](CC(=O)c1ccco1)CC1CCCCC1)C(=O)N[C@@H](CC1CCCCC1)[C@@H](O)[C@@H]1CCCO1	160 nM
O=C(C[C@@H](Cc1ccccc1)C(=O)N[C@@H](Cc1cnc[nH]1)C(=O)N[C@@H](CC1CCCCC1)[C@@H](O)[C@@H]1CCCO1)c1ccco1	0.86 nM
CC(C)C[C@H](NC(=O)[C@H](CC(=O)c1ccccc1)Cc1ccccc1)C(=O)N[C@@H](CC1CCCCC1)[C@@H](O)c1ccco1	4000 nM

The remaining compounds from weak to strong by IC50, led by results:

IC50	SMILES
24 nM	CC(C)C[C@H](NC(=O)[C@@H](CC(=O)c1ccccc1)Cc1ccccc1)C(=O)N[C@@H](CC1CCCCC1)[C@@H](O)c1ccco1
5.1 nM	CC(C)C[C@H](NC(=O)[C@@H](CC(=O)c1ccco1)CC1CCCCC1)C(=O)N[C@@H](CC1CCCCC1)[C@@H](O)[C@@H]1CCCO1
3.3 nM	CC(C)C[C@H](NC(=O)[C@@H](CC(=O)c1cccc(C(F)(F)F)c1)Cc1ccccc1)C(=O)N[C@@H](CC1CCCCC1)[C@@H](O)[C@@H]1CCCO1
0.07 nM	O=C(C[C@@H](Cc1ccccc1)C(=O)N[C@@H](Cc1c[nH]cn1)C(=O)N[C@@H](CC1CCCCC1)[C@@H](O)[C@@H]1CCCO1)c1ccccc1
